Entries after “also recorded” stand apart in the source; their conditions may differ.
Assay: Heat stability of peptide variants
Format: physicochemical
Conditions: C-terminal variants of SGGNNSPA-X; no method or data given

SGGNNSPAM [SEQ ID 18]
heat stability: particularly good Leu-heat stability; also recorded: increased heat stability

Source: patent US8372412B2, “Bioassay and peptides for use therein” (Rapid Biosensor Systems Limited, priority 2005, dated 2013)
